Laboratory results from patent EP4840864A1, “CRYSTAL FORM OF PYRIDOPYRIMIDINE DERIVATIVE, PREPARATION METHOD THEREFOR AND USE THEREOF” (dated 2026).

How the values were obtained:
[1] = Hygroscopicity study by dynamic vapor sorption (DVS); conditions: 25°C, 80% RH
Method: • Instrument model: SMS DVS Advantage dynamic vapor sorption analyzer • Testing conditions: A sample (10 to 30 mg) is placed into a DVS sample pan for testing. • Detailed DVS parameters are as follows: • Temperature: 25°C • Equilibrium: dm/dt = 0.005%/min (minimum: 10 min, maximum: 180 min) • Gas: N2 • RH (%) testing steps: 10% (90%-0%-90%); 5% (95%-90%, 90%-95%) • RH (%) testing step range: 0% - 95% - 0%
The classification for evaluating hygroscopicity is as follows: Table 2. Classification for evaluating hygroscopicity
10 to 30 mg of the crystal form A of the compound of formula (I) was placed into a DVS sample pan for testing.

[2] = Solid stability test, crystal form checked by XRPD
Method: According to the "Guidelines for the Stability Testing of Drug Substances and Pharmaceutical Preparations" (General Chapter 9001, Part IV, Chinese Pharmacopoeia 2020 Edition), the solid stability of crystal form A of the compound of formula (I) was evaluated. The crystal form A was respectively placed under conditions of high temperature (60°C, open), high humidity (25°C / 92.5% relative humidity, open), and illumination (open, illuminated under conditions of 5000 +/- 500 lux (visible light) and 90 w/cm^2 (ultraviolet) for 10 days, where the total illuminance received was not less than 1.2×10^6 Lux-hr, and the near-ultraviolet energy was not less than 200 w·hr/m^2; samples of a light-shielding control group were placed at the same time and wrapped in aluminum foil). Each sample was placed in an amount of 1.5 g. After the completion of sample placement, all stability samples were subjected to XRPD testing, and the results are shown in Table 9. Table 9. Solid stability test results of crystal form A of the compound of formula (I)

GP2D cells = assay: Proliferative inhibitory effect on GP2D cell line (CellTiter-Glo 3D); conditions: read-out: GP2D IC50; GP2D human colon cancer cells with KRAS G12D mutation, 5 days
Method: Cell culture medium for experiment: Fetal bovine serum at a final concentration of 10% and a penicillin/streptomycin solution at a final concentration of 1% were added into a DMEM cell culture medium, and the mixture was stored at 4°C for future use.
GP2D cells that had reached 80% cell confluence were digested with trypsin, centrifuged, resuspended, and counted. A cell suspension was prepared using the culture medium. The cell suspension was added into a 96-well plate at an amount of 180 µL/well (1000 cells/well). The plate was placed in a cell incubator containing 5% CO2 and cultured at 37°C overnight.
The test compound was diluted with a DMSO solution to 200 µM, and then further diluted with the complete culture medium to 10 µM. […]
After the compound was incubated for the above-mentioned time, the 96-well cell culture plate was taken out. […] The plate was read on an Envision plate reader using the *US LUM-US LUM 96 (cps) program.
The measured signal values of each group were normalized by subtracting the signal value of a cell-free control well. Data were calculated according to the following formula for the cell viability after the compound treatment: % Inhibition rate = (1 - (RFU compound - AVER(RFU negative control)) / (AVER(RFU positive control) - AVER(RFU negative control))) x 100%. […]

Hygroscopicity classification [1]: slightly hygroscopic
ΔW (hygroscopic weight gain) ([1]; DVS): 1.606%
Crystal form ([2]; High humidity (25°C, 92.5% relative humidity, open), 30 days, XRPD): Crystal form A
Crystal form ([2]; High temperature (60°C, open), 30 days, XRPD): Crystal form A
Crystal form ([2]; Light-shielding control group, placed simultaneously with visible + ultraviolet light, wrapped in aluminum foil, XRPD): Crystal form A
Crystal form ([2]; Visible light + ultraviolet light (ICH conditions, open), visible no less than 1.2 × 10^6 Lux·hr, ultraviolet no less than 200 w·hr/m^2, XRPD): Crystal form A
Change of crystal form under all the stability conditions ([2]; high temperature, high humidity, and illumination): did not undergo a significant change
Structure (SMILES): C#Cc1c(F)ccc2cc(N)cc(-c3ncc4c(N5CC6CCC(C5)N6)nc(OC[C@]56CC(=C)CN5C[C@@H]5C[C@@H]56)nc4c3F)c12
IC50 (GP2D cells): 1.25 nM
